This note sets out measurements from patent US20220388992A1, “JAK INHIBITOR COMPOUND AND USE THEREOF” (priority 2019, published 2022).

The target of this experiment is T1, TYK2 (Homo sapiens, UniProt P29597).
T1 sequence (P29597 871-1187 limits assumed): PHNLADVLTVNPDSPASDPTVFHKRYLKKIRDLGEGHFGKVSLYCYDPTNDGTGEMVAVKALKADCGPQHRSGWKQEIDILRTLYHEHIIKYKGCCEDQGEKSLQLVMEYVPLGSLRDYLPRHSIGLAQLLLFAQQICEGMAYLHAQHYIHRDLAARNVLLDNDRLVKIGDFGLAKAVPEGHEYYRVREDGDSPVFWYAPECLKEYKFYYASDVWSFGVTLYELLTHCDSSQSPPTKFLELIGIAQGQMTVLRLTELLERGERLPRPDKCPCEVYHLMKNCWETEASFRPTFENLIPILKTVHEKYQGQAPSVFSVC
In words: TYK2 kinase inhibition, ADP-Glo luminescence assay. Type of experiment: biochemical. The text has this: A drug screening system based on kinases JAK1, JAK2, JAK3, and TYK2 was used to detect the inhibitory ability of small molecule compounds on kinase activity. A kinase undergoes an enzymatic reaction with its substrates IRS 1, IGF1Rtide, and Poly (4:1 Glu, Tyr), consuming ATP to produce ADP, wherein the ADP-Glo reagent and luminescence method were used to detect the amount of the product to reflect the activity of the kinase. 2.1 Experimental Materials and Instruments
a) Dilute a compound solution to be tested by 5 times with 100% DMSO. […] The final concentration of DMSO is 0.5%. d) Transfer 4 μL of ADP-Glo to the 384-well reaction plate, centrifuge it at 1000 rpm/min for 1 min, and incubate it at 25° C. for 40 min. e) Transfer 8 μL of Detection solution to the 384-well reaction plate, centrifuge it at 1000 rpm/min for 1 min, and incubate it at 25° C. for 40 min. f) Use Biotek multi-function plate reader to read the RLU (Relative luminescence unit) signal. The signal intensity is used to characterize the degree of kinase activity.
IC50 (half inhibitory concentration) of the compound can be obtained using the following nonlinear fitting formula:
Y=Bottom+(Top−Bottom)/(1+10^((Log IC50−X)*HillSlope))
(In general: ADP-Glo first removes unused ATP, then detects ADP through luciferase.)

Usually IC50 stands for the concentration at which inhibition is half-maximal. For the compound `O=C(Nc1nc2cccc(-c3ccc(CN4CCS(=O)(=O)CC4)cc3)n2n1)C1CC1` [Filgotinib, reference compound], the IC50 worked out at 293 nM.
